pIC50: −log10 of the molar value.
Molecular target: gamma-secretase (partially purified extract of IMR-32 cell membranes; substrate MBP-C125 Swe fusion protein, cleavage at the Aβ40 site) (Homo sapiens, UniProt P49768)
Assay: Gamma-secretase APP enzyme assay (Example A)
Format: biochemical
Settings: read-out: γAPP IC50; class symbols; assay described in Example A

Compound	pIC50
O=S(=O)(c1ccc(C(F)(F)F)nc1)N1C2c3cn[nH]c3C(F)C1c1c(F)cccc12 (stereo not shown)	> 7.00
COC(=O)CCNc1ccc(C2CC3Cc4[nH]ncc4C(C2)N3S(=O)(=O)c2ccc(C(F)(F)F)cc2)cc1 (stereo not shown)	> 7.00
O=S(=O)(c1ccc(C(F)(F)F)cc1)N1C2CC(c3ccc(F)cc3)C1Cc1n[nH]cc12 (stereo not shown)	6.00 to 6.30
O=S(=O)(c1ccc(C(F)(F)F)cc1)N1C2c3ccccc3C1C(O)c1[nH]ncc12 (single isomer, unassigned) [175]	> 7.00
O=S(=O)(c1ccc(C(F)(F)F)cc1)N1C2c3ccccc3C1C(O)c1[nH]ncc12 (single isomer, unassigned) [195]	6.30 to 7.00
O=S(=O)(c1ccc(C(F)(F)F)nc1)N1C2c3cn[nH]c3C(O)C1c1cccc(F)c12 (stereo not shown)	> 7.00
O=S(=O)(c1ccc(C(F)(F)F)cc1)N1C2c3ccccc3C1C(F)c1[nH]ncc12 (single isomer, unassigned)	> 7.00
O=S(=O)(c1ccc(C(F)(F)F)nc1)N1C2c3ccccc3C1C(O)c1[nH]ncc12 (stereo not shown)	> 7.00
COC(=O)COCCNc1ccc(C2CC3Cc4[nH]ncc4C(C2)N3S(=O)(=O)c2ccc(C(F)(F)F)cc2)cc1 (stereo not shown)	< 6.00
O=S(=O)(c1ccc(C(F)(F)F)nc1)N1C2c3ccccc3C1C(F)c1[nH]ncc12 (single isomer, unassigned)	< 6.00
